Laboratory results reported in patent US8389538B2, “Rexinoid compound having alkoxy group” (National University Corporation Okayama University, priority 2007, dated 2013).
Where two headings read alike, the source gives them in different places.

Tested on: Human leukemia cell strain HL-60
Assay: HL-60 differentiation induction (NBT reduction method)
Type: cell-based

EC50 (read-out: Retinoid activity EC50, test compound alone, concentration giving half of maximum differentiation inducing rate, four days culture): > 10000 nM | EC50 (read-out: Retinoid synergistic activity SEC50, Am80 present at 3.3×10^−10 M, half of maximum differentiation inducing rate): 22 nM
SMILES: CCN(c1ccc(C(C)C)c(OCC(C)C)c1)c1ccc(C(=O)O)cn1
Retinoid synergistic activity BA(%) (Am80 present at 3.3×10^−10 M, maximum differentiation inducing rate relative to total cell number): 81%
